The results in this text go back to patent US20250179215A1, “PLASMIN-BINDING VHHS” (RHEINISCHE FRIEDRICH-WILHELMS-UNIVERSITÄT BONN, priority 2022, published 2025).

In series [1] the target is plasmin (Homo sapiens, UniProt P00747). In words: cell-based or functional assay.
Series [2] concerns the target Aprotinin (BPTI), P00974.

In the case of “Aprotinin (BPTI) (from UniProt P00974 36-93)”, the plasmin-mediated cleavage of FVa, maximal inhibition rate at 10 µM BPTI in series [1] is 26%.

B1: human plasmin (protein)
chain 1: KVYLSECKTGNGKNYRGTMSKTKNGITCQKWSSTSPHRPRFSPATHPSEGLEENYCRNPDNDPQGPWCYTTDPEKRYDYCDILECEEECMHCSGENYDGKISKTMSGLECQAWDSQSPHAHGYIPSKFPNKNLKKNYCRNPDRELRPWCFTTDPNKRWELCDIPRCTTPPPSSGPTYQCLKGTGENYRGNVAVTVSGHTCQHWSAQTPHTHNRTPENFPCKNLDENYCRNPDGKRAPWCHTTNSQVRWEYCKIPSCDSSPVSTEQLAPTAPPELTPVVQDCYHGDGQSYRGTSSTTTTGKKCQSWSSMTPHRHQKTPENYPNAGLTMNYCRNPDADKGPWCFTTDPSVRWEYCNLKKCSGTEASVVAPPPVVLLPDVETPSEEDCMFGNGKGYRGKRATTVTGTPCQDWAAQEPHRHSIFTPETNPRAGLEKNYCRNPDGDVGGPWCYTTNPRKLYDYCDVPQCAAPSFDCGKPQVEPKKCPGR
chain 2: VVGGCVAHPHSWPWQVSLRTRFGMHFCGGTLISPEWVLTAAHCLEKSPRPSSYKVILGAHQEVNLEPHVQEIEVSRLFLEPTRKDIALLKLSSPAVITDKVIPACLPSPNYVVADRTECFITGWGETQGTFGAGLLKEAQLPVIENKVCNRYEFLNGRVQSTELCAGHLAGGTDSCQGDSGGPLVCFEKDKYILQGVTSWGLGCARPNKPGVYVRVSRFVTWIEGVMRNN
For the molecule B1, in series [2], the Kcat/Km of plasmin-mediated cleavage of fluorogenic peptide substrate, BPTI 3 nM came to 8.41e+07 M⁻¹ s⁻¹; the Km of plasmin-mediated cleavage of fluorogenic peptide substrate, BPTI 3 nM was 352 µM; the kcat of plasmin-mediated cleavage of fluorogenic peptide substrate, BPTI 3 nM came to 29600 s⁻¹.
